Results reported in ChEMBL document CHEMBL4364292, “Discovery of a Potent and Selective CCR4 Antagonist That Inhibits Treg Trafficking into the Tumor Microenvironment” (J Med Chem, 2019).

Target: T1, C-C chemokine receptor type 4 (Homo sapiens, UniProt P51679)
T1 sequence (P51679 whole entry): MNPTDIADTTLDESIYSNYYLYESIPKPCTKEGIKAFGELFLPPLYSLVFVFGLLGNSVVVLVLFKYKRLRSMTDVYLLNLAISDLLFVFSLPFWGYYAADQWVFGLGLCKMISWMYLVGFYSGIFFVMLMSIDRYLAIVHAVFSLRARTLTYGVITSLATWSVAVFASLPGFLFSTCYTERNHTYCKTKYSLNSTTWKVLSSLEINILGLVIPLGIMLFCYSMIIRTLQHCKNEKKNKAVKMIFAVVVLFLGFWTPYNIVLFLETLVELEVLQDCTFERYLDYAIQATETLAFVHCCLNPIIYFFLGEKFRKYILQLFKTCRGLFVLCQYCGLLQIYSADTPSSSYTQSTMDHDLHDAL
Experiment: Antagonist activity at human CCR4 expressed in rat chem-5 cells assessed as inhibition of CCL22-induced calcium flux measured at 2.5 secs time interval for 45 secs by fluorescence assay
Format: functional, cell-based
How it was run: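 Calcium flux functional readout of CCR4 antagonism, run without serum; IC50 reported.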

IC50 [nM] | SMILES
23 | Cc1nn([C@H](C)c2ccc(Cl)cc2Cl)c2nc(N3CC[C@H](N4CCCCCC4)[C@H](C)C3)cnc12
58 | Cc1nn([C@H](C)c2ccc(Cl)cc2Cl)c2nc(N3CC[C@H](N4CCC4)[C@H](C)C3)cnc12
32 | Cc1nn([C@H](C)c2ccc(Cl)cc2Cl)c2nc(N3CC[C@H](N4CCC[C@H]4CO)[C@H](C)C3)cnc12
